Patent publication US10696710B2, “Pharmaceutical targeting of a mammalian cyclic di-nucleotide signaling pathway” (Board of Regents, The University of Texas System, priority 2012, dated 2020)
Read-outs that look alike come from different tables or passages of the source.

Tested on: HEK293T cells
Assay type: cell-based, human
Details: q-RT-PCR

cyclic-GMP-AMP [cGAMP]
IFNβ induction (HEK293T cells stably expressing STING): high level of IFNβ induction | IFNβ induction (HEK293T cells): did not respond
